Assay results: patent publication US20130171069A1

Experiments:
[1] = target: Na+/K+-ATPase alpha3 subunit (NAKalpha3) of mature rat hippocampus-derived primary cultured neurons (rat) (UniProt P06687); assay: Scatchard plot; synthetic ASPD on mature rat hippocampal neurons, bound ASPD measured with anti-ASPD antibodies
[2] = target: Na+/K+-ATPase alpha3 subunit (NAKalpha3) of mature rat hippocampus-derived primary cultured neurons (rat) (UniProt P06687); assay: cell-based or functional assay

With “synthetic amylospheroid (synthetic ASPD) (from UniProt P05067 672-713)” the Kd [1] was 150 nM and the NAKα3 activity (ouabain-sensitive ATPase activity of cell membranes about 24 hours after ASPD) [2] was under 20%.
